In general, Kd refers to the concentration at which binding is half-saturated.

Chains of the proteins cited; added tags and fusions are not shown. Lines headed by an entry give the natural chain unless they say otherwise; changes in a name come on top.
UniProt P00183: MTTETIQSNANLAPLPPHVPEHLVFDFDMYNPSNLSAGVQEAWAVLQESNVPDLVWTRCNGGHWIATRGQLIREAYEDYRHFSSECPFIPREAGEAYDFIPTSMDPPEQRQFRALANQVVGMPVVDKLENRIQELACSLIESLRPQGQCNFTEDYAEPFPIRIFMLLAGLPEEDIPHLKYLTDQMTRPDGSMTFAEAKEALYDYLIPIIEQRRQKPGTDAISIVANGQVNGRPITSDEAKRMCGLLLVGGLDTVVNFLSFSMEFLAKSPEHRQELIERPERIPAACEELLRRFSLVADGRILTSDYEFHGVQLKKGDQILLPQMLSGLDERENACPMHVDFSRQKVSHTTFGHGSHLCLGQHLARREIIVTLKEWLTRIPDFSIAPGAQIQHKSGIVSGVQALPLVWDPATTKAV

Values joined by “and” are separate entries in the source; they are usually repeats but may differ in a detail not shown here. Identical values can stand only once.

Consider one substance from paper PMC8318206 (ACS catalysis, 2020).

For series [1] the following is noted: H2O or buffer; cited from earlier work.
Another series addresses P450cam (Pseudomonas putida, UniProt P00183). Description: Steady-state substrate binding titrations.

As to d-(+)-camphor, the Solubility limit in series [1] was 8 mM. Also, the Kd on P450cam (10 mM Tris•HCl (pH 7.4) only, with Pdx (2-fold molar excess)) is 21 ± 2 µM; at P450cam (10 mM Tris•HCl (pH 7.4) only, without Pdx) it was 23 ± 2 µM; on P450cam (10 mM Tris•HCl (pH 7.4), 15 mM KCl, with Pdx (2-fold molar excess)), 9.8 ± 0.8 µM; at P450cam (10 mM Tris•HCl (pH 7.4), 15 mM KCl, without Pdx) it was 9 ± 0.3 µM; on P450cam (20 mM potassium MOPS (pH 7.4), 200 mM KCl, absence of Pdx, 23 °C) it was ~1 µM and 1 µM; on P450cam (20 mM potassium MOPS (pH 7.4), 200 mM KCl, absence of Pdx, 23 °C, listed as Camphor), 1.1 µM. For the same substance, the Kd on P450cam (200 mM KCl, in the presence of Pdx) was determined as 0.95 ± 0.12 µM.
